Legend:
ghrelin receptor F312A = target: T1, ghrelin receptor F312A (Homo sapiens, UniProt Q92847, F312A); assay: HTRF saturation binding of ghrelin-A2, F312A; details: vs. WT
T1 construct: HA signal peptide / HA tag (N); expressed in transfected cells; host or cells: HEK293

Amino acid sequences for entries named in this document (tags omitted).
UniProt Q92847, whole entry F312A: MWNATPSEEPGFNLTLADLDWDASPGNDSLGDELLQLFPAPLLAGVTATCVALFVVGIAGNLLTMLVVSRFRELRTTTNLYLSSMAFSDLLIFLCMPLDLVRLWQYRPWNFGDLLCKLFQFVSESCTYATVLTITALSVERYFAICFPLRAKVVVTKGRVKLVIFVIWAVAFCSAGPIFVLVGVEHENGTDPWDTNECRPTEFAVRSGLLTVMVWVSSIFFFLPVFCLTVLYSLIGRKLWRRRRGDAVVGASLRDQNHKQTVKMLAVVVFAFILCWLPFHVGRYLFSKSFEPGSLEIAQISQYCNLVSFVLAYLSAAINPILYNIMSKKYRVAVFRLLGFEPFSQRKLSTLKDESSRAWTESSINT
UniProt Q92847, whole entry F279A: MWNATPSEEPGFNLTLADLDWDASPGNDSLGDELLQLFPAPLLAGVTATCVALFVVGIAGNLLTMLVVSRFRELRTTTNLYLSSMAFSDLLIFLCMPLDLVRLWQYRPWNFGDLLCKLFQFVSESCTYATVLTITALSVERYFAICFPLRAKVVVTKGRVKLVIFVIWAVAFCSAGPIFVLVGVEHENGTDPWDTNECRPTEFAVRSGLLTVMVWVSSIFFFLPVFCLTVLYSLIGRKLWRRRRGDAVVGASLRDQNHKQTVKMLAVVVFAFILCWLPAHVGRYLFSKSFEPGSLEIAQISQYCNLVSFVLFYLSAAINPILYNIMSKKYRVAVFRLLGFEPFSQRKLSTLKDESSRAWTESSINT

ghrelin receptor F279A = target: T2, ghrelin receptor F279A (Homo sapiens, UniProt Q92847, F279A); assay: HTRF saturation binding of ghrelin-A2, F279A; details: vs. WT
T2 construct: HA signal peptide (printed also as HA-tagged) (N); expressed in transfected cells; host or cells: HEK293

ghrelin
effect of mutation on binding (ghrelin receptor F312A): partly maintain the binding | effect of mutation on binding (ghrelin receptor F279A): partly maintain the binding

Source: PMC8379176, “Molecular recognition of an acyl-peptide hormone and activation of ghrelin receptor” (Nature Communications, 2021)
